Assay outcomes from PubChem BioAssay.
CendR NRP1 mod – NRP-1/CendR interaction modulation | 360,000 tested, 0.85% active | FAM-RPARPAR peptide binding to NRP-1, fluorescence polarization | inhibition, % at 25 µM | O14786;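 active = inhibition or corrected inhibition above about 18%, plus a signal ratio from 0.5 to 1.5, limit read from the data, passing the limit was not always enough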
Yeast UUG start – alters start codon recognition fidelity in yeast. S. cerevisiae UUG-firefly luciferase reporter, luminescence/redox ratio. activity score, % at 18.7 µM. 0.13% of 350,000 active. AID 602363;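 active = replicate mean at a twofold rise or more, about +100% in these data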;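 also: firefly luciferase made from a UUG start codon reports start codon fidelity; reporter light over untreated wells divided by growth signal over untreated wells; some hits fall short of that in this replicate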
MC4R ag barr – activates human MC4R beta-arrestin recruitment. 360,000 tested, 0.98% active. U2OS MC4R beta-arrestin complementation, luminescence; percent of melanotan II response, DMSO zero. activation, % at 8.9 µM. AID 540308;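 active = activation above a per-plate cutoff, the mean activation of sample wells on that plate plus 3 SD, cut at about 8% in these data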
MC4R antagonist – antagonists of human melanocortin 4 receptor (MC4R); MC4R-expressing cells, MTII-stimulated cAMP, LANCE TR-FRET; inhibition, % at 6.5 µM; 360,000 tested, 0.48% active; P32245;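 active = inhibition above its plate's cutoff, the mean of tested wells on that plate plus 3 SD, cut at about 29% in these data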;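 note: 0% = Melanotan II alone and 100% = Melanotan II plus saturating MCL0020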
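Assay system: U2OS cells stably expressing human melanocortin 4 receptor (MC4R) / Dosing: 6.5 µM / Timing: compound 30 min, challenge 1 h, detection 1 h / Measured by: Eu-cAMP/anti-cAMP TR-FRET, emission 671 nm / Replicates: singlicate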
ASAP1 inh – inhibitors of human ASAP1 ArfGAP activity. ASAP1-stimulated ARF1 GTP hydrolysis, GDP FP detection. Q9ULH1. inhibition, % at 16.5 µM. 360,000 tested, 0.19% active; in the data active = inhibition above about 25%;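 note: 0% = vehicle with enzyme and substrate and 100% = no enzyme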
ARFGAP1 inh – inhibitors of rat ARFGAP1 | Q62848 | Arfgap1-stimulated ARF1 GTP hydrolysis, GDP FP detection | inhibition, % at 16.5 µM | 360,000 tested, 0.26% active | AID 651572;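 active = inhibition above a per-plate limit, mean inhibition of low control wells plus 3 SD, cut at about 25% in these data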;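 note: 0% = DMSO wells with enzyme and 100% = wells lacking Arfgap1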
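Material: rat Arfgap1 GAP domain (His6, aa 1-136), purified enzyme. Also added: human ARF1(Δ1-17)-GTP substrate. Compound dosing: 16.5 µM single point, 1.26% DMSO. Timing: enzyme reaction 120 min at 25 °C after 20 min preincubation. Signal: GDP detection by fluorescence polarization. Read-out basis: percent inhibition of GAP-stimulated GDP formation, scaled between DMSO and no-Arfgap1 medians.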
* marks the source's active call; other numbers are inactive results; . = no result given. Most compounds without a hit are left out; they make up all but 2.3% or so of the library.

Molecule	CendR NRP1 mod	Yeast UUG start	MC4R ag barr	MC4R antagonist	ASAP1 inh	ARFGAP1 inh
COCCC(=O)N1CCC(Oc2ccc(C(=O)NCCn3cccn3)cc2)CC1	36.3*	-11.2	5.4	4.2	-18.2	-7.9
CCCNC(=O)C[C@@H]1CC[C@@H]2[C@@H](COc3ccc(NC(=O)c4ccc(OC)cc4)cc3C(=O)N2C)O1	.	4.2	.	.	.	.
COc1ccc(NC(=O)Nc2ccc3c(c2)CC(=O)N([C@H](C)CO)C[C@@H](C)[C@@H](CN(C)CC2CC2)O3)cc1	.	-12.0	.	.	.	.
CCOC(=O)c1c(NC(=O)COC(=O)Cn2cnc3ccccc32)sc2c1CCC(C)C2 (centres undefined)	33.3*	.	0.9	3.5	16.1	4.6
COC(=O)[C@H](CC(C)C)NS(=O)(=O)N(Cc1ccccc1)[C@@H](CC(C)C)C(=O)OC	28.5*	5.5	2.8	10.1	-2.8	-6.1
Cc1cc2[nH]c3c4ccccc4nc(C)c3c2cc1C	8.3	18.9	23.6*	15.4	-8.3	-4.4
C[C@H]1CN([C@@H](C)CO)S(=O)(=O)c2ccc(-c3cccc(C#N)c3)cc2O[C@@H]1CN(C)C(=O)c1ccncc1	.	3.1	.	.	.	.
Brc1ccccc1/C=N/Nc1ccccn1	1.1	1.6	9.4*	-4.8	-3.4	-4.7
COc1ccc(C)cc1N(CC(=O)N1CCc2ccccc2C1)S(C)(=O)=O	26.5*	.	-1.0	2.4	0.2	2.3
CCOc1ccccc1N(CC(=O)N1CCc2ccccc2C1)S(C)(=O)=O	3.7	14.6	-1.3	5.9	-0.5	4.4
COc1ccc(N(CC(=O)N2CCc3ccccc3C2)S(C)(=O)=O)cc1OC	-3.1	-18.9	-0.4	0.4	15.5	15.8
COc1ccccc1N(CC(=O)N1CCc2ccccc2C1)S(C)(=O)=O	24.8*	-4.7	-1.0	-1.8	1.2	-6.1
COc1ccc(-c2n[nH]c(C)c2-c2ccc(Cl)cc2)c(O)c1	1.1	.	9.1*	-3.7	12.3	9.1
Cc1noc(C)c1S(=O)(=O)N(C)C[C@@H]1Oc2c(NS(=O)(=O)c3cn(C)cn3)cccc2C(=O)N([C@H](C)CO)C[C@H]1C	.	-9.4	.	.	.	.
COc1ccccc1Nc1nc(C)cc(C)n1	-12.6	-16.5	0.0	-1.7	2.0	-19.6
CCOc1nc(Nc2cc(Cl)ccc2OC)nc(OCC)n1	-3.0	-6.4	-0.1	-2.1	-12.3	-9.6
COc1ccccc1Nc1nc(Cl)nc(Nc2ccccc2OC)n1	26.1*	.	-1.3	11.6	0.9	-13.4
C=CCNc1nc(Cl)nc(Nc2cc(Cl)ccc2OC)n1	0.4	-9.1	8.8*	21.9	9.6	-3.2
Cc1ccc(C)c(C(=O)Cn2ncc(Cl)c(Cl)c2=O)c1	20.4*	.	-2.0	21.3	-5.1	-5.8
Cc1cc(C(=O)Cn2ncc(Cl)c(Cl)c2=O)c(C)n1CC(F)(F)F	-5.8	.	-0.3	17.2	5.9	10.3
O=C(C[C@@H]1C=C[C@@H](NC(=O)c2ccccc2)[C@H](CO)O1)Nc1ccc(-c2ccccc2)cc1	.	2.3	.	.	.	.
Fc1cccc(/C=N/Nc2ccc(Cl)nn2)c1	3.4	-20.2	12.4*	-1.5	9.4	-5.0
C[C@@H]1CN([C@@H](C)CO)C(=O)Cc2cc(NS(=O)(=O)c3ccc(F)cc3)ccc2O[C@@H]1CN(C)C(=O)Nc1ccc(F)cc1	.	11.3	.	.	.	.
COc1cccc(-c2nnc(Nc3nc4c(F)cccc4s3)o2)c1	32.9*	-7.5	0.4	22.7	-5.0	7.2

Quoted at random: 2 entries already listed, in no set order.
Molecule	CendR NRP1 mod	Yeast UUG start	MC4R ag barr	MC4R antagonist	ASAP1 inh	ARFGAP1 inh
C[C@@H]1CN([C@@H](C)CO)C(=O)Cc2cc(NS(=O)(=O)c3ccc(F)cc3)ccc2O[C@@H]1CN(C)C(=O)Nc1ccc(F)cc1	.	11.3	.	.	.	.
COc1ccc(-c2n[nH]c(C)c2-c2ccc(Cl)cc2)c(O)c1	1.1	.	9.1*	-3.7	12.3	9.1

Entries of single compounds, looked up by structure:
CCOc1ccccc1N(CC(=O)N1CCc2ccccc2C1)S(C)(=O)=O as listed: CendR NRP1 mod: 3.7; Yeast UUG start: 14.6; MC4R ag barr: -1.3; MC4R antagonist: 5.9; ASAP1 inh: -0.5; ARFGAP1 inh: 4.4
COc1ccc(N(CC(=O)N2CCc3ccccc3C2)S(C)(=O)=O)cc1OC as listed: CendR NRP1 mod: -3.1; Yeast UUG start: -18.9; MC4R ag barr: -0.4; MC4R antagonist: 0.4; ASAP1 inh: 15.5; ARFGAP1 inh: 15.8

Next section
Molecule	CendR NRP1 mod	Yeast UUG start	MC4R ag barr	MC4R antagonist	ASAP1 inh	ARFGAP1 inh
CC(=O)N(C)C[C@H]1Oc2ncc(-c3ccccc3C)cc2C(=O)N([C@H](C)CO)C[C@H]1C	.	-13.4	.	.	.	.
COC(=O)C1CCN(C(=O)COC(=O)c2oc3ccc(OC)cc3c2C)CC1	-0.5	-3.3	-2.3	-2.4	6.4	4.8
CCOC(=O)N1CCN(C(=O)COC(=O)c2oc3ccc(OC)cc3c2C)CC1	23.0*	5.1	-3.0	0.1	3.6	-0.7
Cc1cccc(C)c1NC(=O)CSc1nnc(-c2ccoc2C)n1CCc1ccccc1	21.0*	-7.7	-2.2	2.6	-7.8	-3.0
Cc1csc(NC(=O)CSc2nnc(-c3ccoc3C)n2CCc2ccccc2)n1	-0.4	-6.6	-1.1	-0.1	-4.2	1.6
C[C@H]1CN([C@@H](C)CO)C(=O)Cc2cc(NC(=O)C3CC3)ccc2O[C@@H]1CN(C)S(=O)(=O)c1ccc(F)cc1	.	-1.0	.	.	.	.
COc1ccc2c(c1)c(C(=O)N/N=C/c1ccc(Br)cc1)c(C)n2C	26.0*	-16.9	2.2	-5.3	0.6	3.6
CC(C)NC(=O)N[C@H]1CC[C@@H](CC(=O)NCCCN(C)C)O[C@H]1CO	.	-8.8	.	.	.	.
C[C@@H]1CCCCO[C@@H](CN(C)C(=O)c2ccccc2)[C@H](C)CN([C@@H](C)CO)C(=O)c2cc(NC(=O)CCCN(C)C)ccc2O1	.	9.0	.	.	.	.
C[C@@H]1CN([C@@H](C)CO)C(=O)c2cc(-c3ccncc3)cnc2O[C@@H]1CN(C)C(=O)Cc1cccnc1	.	-8.9	.	.	.	.
CCCNC(=O)C[C@H]1C[C@H]2c3cc(NC(=O)c4ccc5c(c4)OCO5)ccc3O[C@H]2[C@H](CO)O1	.	-1.6	.	.	.	.
COc1cc2[nH]c3c(N4CCN(c5ccc(Cl)cc5)CC4)ncnc3c2cc1OC	-1.5	-7.3	11.7*	20.3	2.0	9.4
Cc1ccc(-n2ncc(Br)c(Br)c2=O)cc1	6.4	-34.4	0.7	45.3*	.	.
O=[N+]([O-])c1cc(-c2csc(NCCc3nc4cc(C(F)(F)F)ccc4n3CCCO)n2)ccc1Cl	28.4*	-4.4	-1.2	14.8	13.6	7.3
CNC(=S)Nc1ccc(N2CCCC2)c(S(=O)(=O)Nc2ccc(OC)cc2)c1	41.5*	-11.3	-1.5	-1.0	5.3	3.7
COc1ccc(NS(=O)(=O)c2cc(NC(=O)CC(C)(C)C)ccc2N2CCCC2)cc1	-15.9	-1.3	-2.2	-1.0	3.8	4.4
Cc1ccnc(N2CCC(C(=O)Nc3ccc4c(c3)OCCO4)CC2)n1	24.8*	.	-3.2	-0.6	9.3	5.1
Cc1cc2c(=Cc3ccc(N(C)C)cc3)c3ccccc3n2[n+]1C	-181.7	.	-4.0	-33.5	-5.5	13.7
CN(C)c1ccc(C=c2c3ccccc3n3c2c2ccccc2[n+]3C)cc1	16.7	.	13.8*	4.1	59.4*	95.0*
Cc1cc(O)cc(O)c1-c1onc(C(F)(F)F)c1-c1cscn1	10.8	-9.5	-1.0	2.0	16.0	11.1
CCOc1ccc(-c2onc(C(F)(F)F)c2-c2cscn2)c(O)c1	26.7*	-2.2	1.0	8.5	-0.8	0.5
CCc1ccc(NC(=O)N(Cc2ccco2)C(C)c2cccs2)cc1 (centres undefined)	31.6*	-3.5	3.5	2.0	12.0	-8.4
C[C@H]1CN([C@@H](C)CO)C(=O)c2cc(NS(=O)(=O)c3cn(C)cn3)ccc2O[C@@H]1CN(C)S(C)(=O)=O	.	-14.8	.	.	.	.
